High-throughput results deposited in PubChem BioAssay by several laboratories.
PABP polyA inh – PABP poly(A) RNA binding inhibitors, primary screen, biochemical, fluorescence polarization, uHTS. hit rate 1% among 290,000. Polyadenylate-binding protein 1 (Homo sapiens), P11940. calls only at 35 µM;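 note: calls also rest on retests at 20 µM and on dose response follow-up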
Yeast UUG start – modulators of yeast start codon fidelity, primary screen, whole organism, S. cerevisiae, single point, plate reader; S. cerevisiae UUG-firefly luciferase reporter, luminescence/redox ratio; activity score, % at 18.7 µM; 0.13% of 350,000 active; AID 602363, 2012;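 active = replicate mean at a twofold rise or more, about +100% in these data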;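 also: firefly luciferase made from a UUG start codon reports start codon fidelity; reporter light over untreated wells divided by growth signal over untreated wells; some hits fall short of that in this replicate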
Pemphigus Ab inh – inhibitors of pemphigus antibody binding to DSG3, primary screen, biochemical, bead-based, flow cytometry, scFv-GFP. hit rate 0.48% among 310,000. Desmoglein-3 (Homo sapiens), P32926. binding (percent of control), % at 10 µM. DSG3-coupled beads, scFv-anti-DSG3-GFP binding; active compounds read low. AID 588358, 2011;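 active = binding more than 3 SD below its plate's average and above zero; inconclusive = below that plate limit but binding exactly zero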;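 note: hits lower antibody fragment binding to DSG3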
MLLE-PAM2 inh – inhibitors of PABP1 MLLE–PAM2 peptide binding, primary screen, biochemical, fluorescence polarization, FITC-PAM2, GST-MLLE. inhibition, % at 20 µM. hit rate 0.36% among 360,000; in the data active = inhibition above about 35%, passing the limit was not always enough
eIF4H inh – human eIF4H binding inhibitors, primary screen, translation initiation inhibitor project, biochemical, uHTS, fluorescence polarization. hit rate 0.94% among 290,000. AID 2012, 2009. Eukaryotic translation initiation factor 4H (Homo sapiens), Q15056. eIF4H fluorescence polarization binding assay. inhibition, % at 35 µM;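 note: calls also rest on retests at 20 µM and on dose response follow-up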
Each line names hits and unclear results; the compound was inactive in the other large screens. Shown are actives, neighbours in structure and some others; about 1.5% of the full set was active somewhere. Unless noted, the rule behind the calls is not given here.

Chains of the proteins cited; added tags and fusions are not shown.
Polyadenylate-binding protein 1 (Homo sapiens), P11940, UniProt P11940, whole entry, looked up: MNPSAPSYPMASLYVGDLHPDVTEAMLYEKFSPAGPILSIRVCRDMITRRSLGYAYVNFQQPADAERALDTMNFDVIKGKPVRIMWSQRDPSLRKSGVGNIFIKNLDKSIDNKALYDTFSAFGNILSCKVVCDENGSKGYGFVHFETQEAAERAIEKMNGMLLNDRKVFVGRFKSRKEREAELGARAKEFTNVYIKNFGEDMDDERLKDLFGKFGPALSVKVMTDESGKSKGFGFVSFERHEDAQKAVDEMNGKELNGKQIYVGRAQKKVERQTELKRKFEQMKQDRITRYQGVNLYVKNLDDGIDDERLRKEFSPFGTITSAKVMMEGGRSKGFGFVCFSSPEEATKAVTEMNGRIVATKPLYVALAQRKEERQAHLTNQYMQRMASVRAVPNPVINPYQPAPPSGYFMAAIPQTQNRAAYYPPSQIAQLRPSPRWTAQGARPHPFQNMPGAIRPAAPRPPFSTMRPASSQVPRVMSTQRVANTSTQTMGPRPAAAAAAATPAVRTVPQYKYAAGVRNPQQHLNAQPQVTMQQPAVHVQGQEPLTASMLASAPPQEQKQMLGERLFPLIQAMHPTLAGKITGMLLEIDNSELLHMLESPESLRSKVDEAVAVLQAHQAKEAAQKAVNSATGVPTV
Desmoglein-3 (Homo sapiens), P32926, UniProt P32926, whole entry, looked up: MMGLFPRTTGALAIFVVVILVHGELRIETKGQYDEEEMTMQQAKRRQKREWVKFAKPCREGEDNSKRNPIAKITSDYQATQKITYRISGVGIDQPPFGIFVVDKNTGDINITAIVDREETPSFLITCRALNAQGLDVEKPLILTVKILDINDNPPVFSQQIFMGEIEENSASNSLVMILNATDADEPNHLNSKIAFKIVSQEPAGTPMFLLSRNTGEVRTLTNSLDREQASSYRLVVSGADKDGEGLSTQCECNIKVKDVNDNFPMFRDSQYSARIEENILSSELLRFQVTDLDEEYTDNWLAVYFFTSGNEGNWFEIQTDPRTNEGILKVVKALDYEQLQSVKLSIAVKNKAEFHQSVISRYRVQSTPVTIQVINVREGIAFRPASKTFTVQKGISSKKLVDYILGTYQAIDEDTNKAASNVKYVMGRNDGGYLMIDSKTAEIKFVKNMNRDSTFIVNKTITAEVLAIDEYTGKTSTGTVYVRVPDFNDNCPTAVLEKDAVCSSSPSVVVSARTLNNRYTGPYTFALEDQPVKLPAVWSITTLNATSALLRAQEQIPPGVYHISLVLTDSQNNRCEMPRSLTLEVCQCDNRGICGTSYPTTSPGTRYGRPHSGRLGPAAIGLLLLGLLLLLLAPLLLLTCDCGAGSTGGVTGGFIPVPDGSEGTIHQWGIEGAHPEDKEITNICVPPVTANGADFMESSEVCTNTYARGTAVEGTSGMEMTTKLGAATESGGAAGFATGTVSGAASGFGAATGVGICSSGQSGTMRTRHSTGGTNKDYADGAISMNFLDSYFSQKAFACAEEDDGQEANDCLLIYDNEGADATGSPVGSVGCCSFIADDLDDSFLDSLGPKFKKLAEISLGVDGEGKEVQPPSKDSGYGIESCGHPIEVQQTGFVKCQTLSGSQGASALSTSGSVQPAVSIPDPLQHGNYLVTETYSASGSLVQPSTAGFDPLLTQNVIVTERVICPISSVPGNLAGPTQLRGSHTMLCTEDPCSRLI

Cc1nnc(-c2ccco2)c2cn(-c3cccc(Br)c3)nc12	eIF4H inh 64 (no result: Yeast UUG start)
CC(=O)c1nn(-c2cccc(Br)c2)cc1C(=O)c1ccco1	none
CCOc1ccc(-c2nc3scc(-c4cccs4)c3c(=O)[nH]2)cc1	Pemphigus Ab inh 71 (no result: Yeast UUG start)
Cc1ccc(-c2csc3nc(-c4ccncc4)[nH]c(=O)c23)cc1	none
COC(=O)c1ccc(CSc2nc3scc(-c4cccs4)c3c(=O)[nH]2)o1	PABP polyA inh active, eIF4H inh 54
C[C@H](CO)N1C[C@H](C)[C@@H](CN(C)Cc2ccc(C(F)(F)F)cc2)Oc2ccc(NS(=O)(=O)c3cn(C)cn3)cc2CC1=O	none (no result: PABP polyA inh, Pemphigus Ab inh, MLLE-PAM2 inh, eIF4H inh)
CCCCN(C(=O)/C=C/c1ccccc1)C1CCS(=O)(=O)C1 (configuration not stated)	Pemphigus Ab inh 74 (no result: PABP polyA inh, Yeast UUG start, eIF4H inh)
C[C@@H]1CCCCO[C@H](CN(C)C(=O)Nc2cccc3ccccc23)[C@@H](C)CN([C@H](C)CO)C(=O)c2cc(NC(=O)c3ccncc3)ccc2O1	none (no result: PABP polyA inh, Pemphigus Ab inh, MLLE-PAM2 inh, eIF4H inh)
c1ccc(CSc2nnc3c(n2)OC(c2ccco2)Nc2ccccc2-3)cc1 (configuration not stated)	Pemphigus Ab inh 61, eIF4H inh 4.0
C=CCSc1nnc2c(n1)OC(c1c(C)[nH]n(-c3ccccc3)c1=O)Nc1ccccc1-2 (configuration not stated)	PABP polyA inh active, eIF4H inh inconclusive
C=CCSc1nnc2c(n1)OC(c1cccnc1)Nc1ccccc1-2 (configuration not stated)	Pemphigus Ab inh inconclusive
O=c1c(-c2ccccc2)n[nH]c2ccccc12	none
O=C1c2ccccc2-c2n[nH]c3cccc1c23	MLLE-PAM2 inh 73 (no result: PABP polyA inh, eIF4H inh)
CO[C@H]1CN(C)C(=O)c2cc(NS(=O)(=O)c3cn(C)cn3)ccc2OC[C@@H](C)N(Cc2cccc(F)c2)C[C@@H]1C	none (no result: PABP polyA inh, Pemphigus Ab inh, MLLE-PAM2 inh, eIF4H inh)
O=C(CCl)Nc1ccc(N=Nc2ccccc2)cc1	eIF4H inh active
O=C(CCl)Nc1ccc(-c2ccccc2)cc1	none (no result: Yeast UUG start)
COC(=O)N/N=C/c1ccc(OC(=O)/C=C/c2ccco2)cc1	PABP polyA inh active, eIF4H inh inconclusive
O=C(Cc1ccccc1)N/N=C/c1ccc(OC(=O)/C=C\c2ccco2)cc1	none
Cc1c(C(=O)N/N=C/c2ccc(-c3ccccc3[N+](=O)[O-])o2)sc(N)c1C#N	PABP polyA inh active, eIF4H inh 73
CCc1ccc(N(C(C)=O)c2nc(CCl)cs2)cc1	Pemphigus Ab inh 87 (no result: Yeast UUG start)
C[C@@H]1CCCCO[C@H](CN(C)Cc2ccc(C(=O)O)cc2)[C@H](C)CN([C@H](C)CO)C(=O)c2cc(NC(=O)c3ccncc3)ccc2O1	none (no result: PABP polyA inh, Pemphigus Ab inh, MLLE-PAM2 inh, eIF4H inh)
COc1ccc(NC(=S)N=Nc2c(O)[nH]c3ccccc23)cc1	MLLE-PAM2 inh 41
Cc1ccc(NC(=S)N=Nc2c(O)[nH]c3ccccc23)cc1	none (no result: Yeast UUG start)
Oc1ccc(NC(=S)N=Nc2c(O)[nH]c3ccccc23)cc1	MLLE-PAM2 inh 52
CNC(=S)N=Nc1c(O)[nH]c2ccccc12	none (no result: Yeast UUG start)
COc1ccc(S(=O)(=O)N(C)C[C@H]2Oc3ccc(NS(=O)(=O)c4ccccc4)cc3C(=O)N([C@@H](C)CO)C[C@H]2C)cc1	none (no result: PABP polyA inh, Pemphigus Ab inh, MLLE-PAM2 inh, eIF4H inh)
CCn1c(N2CCN(S(=O)(=O)c3ccc(F)cc3)CC2)nc2ccccc21	none
CCn1c(N2CCN(S(=O)(=O)c3ccc(Cl)cc3)CC2)nc2ccccc21	Pemphigus Ab inh -37 (no result: Yeast UUG start)
NC(CO)C(=O)NNCc1ccc(O)c(O)c1O (configuration not stated)	PABP polyA inh active, MLLE-PAM2 inh 48, eIF4H inh 97
CNc1nc(Nc2ccc(Br)cc2)nc(N)c1[N+](=O)[O-]	Pemphigus Ab inh 51 (no result: Yeast UUG start)
Cc1c(C(=O)C(=O)NCCc2ccc(S(N)(=O)=O)cc2)c2ccccc2n1C	PABP polyA inh active, eIF4H inh 93
CCOC1=C2CN(S(=O)(=O)c3ccc(C)cc3)[C@H](c3cccc(Cl)c3)C[C@H]2[C@H]2C(=O)N(c3ccccc3)C(=O)[C@H]2C1	none (no result: PABP polyA inh, Pemphigus Ab inh, eIF4H inh)
CCOC1=C2CN(S(=O)(=O)c3ccc(C)cc3)[C@@H](c3ccccc3)C[C@H]2[C@H]2C(=O)N(c3ccccc3)C(=O)[C@H]2C1	MLLE-PAM2 inh 49 (no result: PABP polyA inh, Pemphigus Ab inh, eIF4H inh)
CCCNC(=O)N(C)C[C@H]1Oc2ncc(C#CC3CC3)cc2C(=O)N([C@H](C)CO)C[C@@H]1C	none (no result: PABP polyA inh, Pemphigus Ab inh, MLLE-PAM2 inh, eIF4H inh)
O=c1oc2c3c4c(cc2s1)CCCN4CCC3	PABP polyA inh active, MLLE-PAM2 inh 74, eIF4H inh 122 (no result: Pemphigus Ab inh)
CCOc1ncccc1C(=O)NCCN1C(=O)S/C(=C/c2cccs2)C1=O	Pemphigus Ab inh 79 (no result: Yeast UUG start)
CCOC(=O)c1c(C)[nH]c(C)c1S(=O)(=O)NC(CC)CN1CCOCC1 (configuration not stated)	PABP polyA inh active, eIF4H inh 94 (no result: Pemphigus Ab inh)
COc1ccccc1NC(=O)N[C@@H]1C=C[C@@H](CC(=O)NCc2ccc(Cl)c(Cl)c2)O[C@H]1CO	none (no result: PABP polyA inh, Pemphigus Ab inh, MLLE-PAM2 inh, eIF4H inh)
C[C@H]1CCCCO[C@H](CN(C)C(=O)C2CCCCC2)[C@@H](C)CN([C@@H](C)CO)C(=O)c2cc(NS(C)(=O)=O)ccc2O1	none (no result: PABP polyA inh, Pemphigus Ab inh, MLLE-PAM2 inh, eIF4H inh)
CCOC(=O)CN1C(=O)S/C(=C\c2ccc(-c3ccc(C(=O)O)c(Cl)c3)o2)C1=O	PABP polyA inh active, eIF4H inh 52
Cc1ccc(/C=C2/NC(=O)N(Cc3ccc(Br)cc3)C2=O)o1	none
O=C(O)c1ccc(-c2ccc(/C=C3\NC(=O)N(Cc4ccc(Cl)cc4)C3=O)o2)cc1Cl	PABP polyA inh active, Pemphigus Ab inh 80
COc1cccc(Nc2ccc(N3CCCCC3)cc2)c1OC	MLLE-PAM2 inh 60 (no result: PABP polyA inh, eIF4H inh)
COc1cccc(CNc2ccc(N3CCCCC3)cc2)c1OC	none (no result: Pemphigus Ab inh)
Cc1ccc(NC(=S)N(CCCN2CCN(C)CC2)Cc2cccs2)cc1C	PABP polyA inh active (no result: Yeast UUG start)
O=C(NCC[C@H]1CC[C@H](NS(=O)(=O)c2cccc(F)c2)[C@H](CO)O1)C1CCC1	none (no result: PABP polyA inh, Pemphigus Ab inh, MLLE-PAM2 inh, eIF4H inh)
CCN1[C@@H]2Cn3c(ccc(-c4ccccc4OC)c3=O)[C@H]1[C@@H](C(=O)N1CCOCC1)[C@@H]2CO	none (no result: PABP polyA inh, Pemphigus Ab inh, MLLE-PAM2 inh, eIF4H inh)
O=C(O)c1ccc(N2C(=O)c3cccc4c(C(=O)O)ccc(c34)C2=O)cc1	PABP polyA inh active, eIF4H inh 96 (no result: Yeast UUG start, Pemphigus Ab inh)
NN1C(=O)c2cccc3c(C(=O)O)ccc(c23)C1=O	none
O=C(O)c1ccc2c3c(cccc13)C(=O)N(c1ccccc1)C2=O	Pemphigus Ab inh 16
O=C(O)c1ccc(N2C(=O)c3cccc4cccc(c34)C2=O)cc1	none
Cc1ccc(S(=O)(=O)Nc2ccc3c(c2)C(=O)N([C@@H](C)CO)C[C@H](C)[C@H](CN(C)C(=O)c2ccncc2)OCCCC[C@@H](C)O3)cc1	none (no result: PABP polyA inh, Pemphigus Ab inh, MLLE-PAM2 inh, eIF4H inh)
C[C@H]1CN([C@@H](C)CO)C(=O)c2cc(NC(=O)CCC(F)(F)F)ccc2O[C@@H]1CN(C)S(=O)(=O)c1ccc(Cl)cc1	none (no result: PABP polyA inh, Pemphigus Ab inh, MLLE-PAM2 inh, eIF4H inh)
